Key:
human mononuclear cells = test: IL-12 and IFN-γ production by mononuclear cells stimulated with heat-killed Lactobacillus plantarum L137, with DEX (ELISA); format: cell-based; settings: DEX 10 nM, nigerose 0 μg/mL, Lactobacillus plantarum L137 1.0 μg/mL, 24 h
Description: A 2 μg/mL solution of a mouse anti-human IFN-γ antibody (manufactured by Endogen Inc.) prepared in a borate buffer solution was added in 50 μL per one well on a 96-well ELISA plate, and the plate was allowed to stand at 4° C. for a day to adhere the mouse anti-human IFN-γ antibody to each well. The above-mentioned culture supernatant was added in 50 μL per one well on the ELISA plate adhering the mouse anti-human IFN-γ antibody, and the plate was allowed to stand at room temperature for 90 minutes, thereby binding the IFN-γ in the culture supernatant to the mouse anti-human IFN-γ antibody adhered on the plate. […] The absorbance at a measurement wavelength of 492 nm and a reference wavelength of 630 nm was measured, and the concentration of the IFN-γ in the culture supernatant was obtained from a calibration curve prepared with a recombinant IFN-γ.
To the culture was added a cell stimulatory factor, which was heated dead body cells of Lactobacillus plantarum L137, so as to make a final concentration of […]. […] After completion of the incubation, the amounts of IL-12 and IFN-γ in the culture supernatant were measured by the ELISA.

[1] = system: spleen cells of BALB/c mice; test: Preliminary test: cytokine productivity of spleen cells from DEX-administered mice (ELISA); format: in vivo; settings: DEX 60 μg/mouse i.p., spleen cells 24 h after vs before DEX
Description: Before verifying the effect of nigerooligosaccharide, as a preliminary test in order to identify the decrease in cytokine productivity due to DEX, DEX (60 μg/mouse) was intraperitoneally administered to 14 weeks old, female BALB/c mice. Before and 24 hours after the administration of DEX, the spleen was excised from the BALB/c mice, and spleen cells were prepared by a conventional method. The prepared spleen cells were suspended in an RPMI 1640 culture medium so as to make a concentration of 5.0×10^6 cells/mL. This suspension was inoculated in 100 μL per one well on a 96-well tissue culture plate, and further a solution of a cell stimulatory factor, (1) PHA or (2) LPS, dissolved in the RPMI 1640 culture medium so as to make a final concentration of 12.5 μg/mL or 20 μg/mL, respectively, was added in 100 μL per one well. The spleen cells were cultivated at 37° C. for 24 hours in a 5% CO2 incubator, and the concentrations of cytokines in the culture supernatant, IL-4 and IFN-γ for the foregoing (1) or IL-10 and TNF-α for the foregoing (2), were measured by the ELISA. The amount of IFN-γ was measured on the basis of the ELISA described in Example 2. The amounts of IL-4, IL-10 and TNF-α were measured in a manner similar to the ELISA described in Example 2, except that the IFN-γ in the ELISA described in Example 2 was replaced by IL-4, IL-10 or TNF-α.
Hereupon, the cytokine production ratio (%) in the DEX-administered mice was calculated by the following equation: Cytokine production ratio (%)=(A/B)×100
A: The cytokine concentration in the culture supernatant of the cells of spleen excised 24 hours after the intraperitoneal administration of DEX
B: The cytokine concentration in the culture supernatant of the cells of spleen excised before the intraperitoneal administration of DEX

In the case of `C[C@@H]1C[C@H]2[C@@H]3CCC4=CC(=O)C=C[C@]4(C)[C@@]3(F)[C@@H](O)C[C@]2(C)[C@@]1(O)C(=O)CO` [DEX, Dexamethasone], the IL-12 (human mononuclear cells) is reported as 0.121 ± 0.046 ng/mL, the “Cytokine production ratio (%) in DEX-administered mice, IL-10” value ([1]; LPS 20 μg/mL) is reported as 56.8% and the “Cytokine production ratio (%) in DEX-administered mice, TNF-α” value ([1]; LPS 20 μg/mL) is reported as 64.7%. For the same compound, the “Cytokine production ratio (%) in DEX-administered mice, IFN-γ” value ([1]; PHA 12.5 μg/mL) was 51.7% and the “Cytokine production ratio (%) in DEX-administered mice, IL-4” value ([1]; PHA 12.5 μg/mL) was 65.8%.

Reference: patent US7786093B2, “Antistress agent” (Health Wellness Foods Corporation, priority 2004, dated 2010)
